Drawing on patent US9708334B2, “Substituted 2,4,5,6-tetrahydropyrrolo[3,4-c]pyrazole and 4,5,6,7-tetrahydro-2H-pyrazolo[4,3-c]pyridine compounds as GlyT1 inhibitors” (DART NEUROSCIENCE (CAYMAN) LTD., priority 2014, dated 2017), this text covers IC50 for four compounds.

Some results are limits rather than exact numbers.

This experiment deals with T1, GlyT1 (Homo sapiens, UniProt P48067).
T1 construct: expressed in transfected cells
T1 sequence (P48067 1-706): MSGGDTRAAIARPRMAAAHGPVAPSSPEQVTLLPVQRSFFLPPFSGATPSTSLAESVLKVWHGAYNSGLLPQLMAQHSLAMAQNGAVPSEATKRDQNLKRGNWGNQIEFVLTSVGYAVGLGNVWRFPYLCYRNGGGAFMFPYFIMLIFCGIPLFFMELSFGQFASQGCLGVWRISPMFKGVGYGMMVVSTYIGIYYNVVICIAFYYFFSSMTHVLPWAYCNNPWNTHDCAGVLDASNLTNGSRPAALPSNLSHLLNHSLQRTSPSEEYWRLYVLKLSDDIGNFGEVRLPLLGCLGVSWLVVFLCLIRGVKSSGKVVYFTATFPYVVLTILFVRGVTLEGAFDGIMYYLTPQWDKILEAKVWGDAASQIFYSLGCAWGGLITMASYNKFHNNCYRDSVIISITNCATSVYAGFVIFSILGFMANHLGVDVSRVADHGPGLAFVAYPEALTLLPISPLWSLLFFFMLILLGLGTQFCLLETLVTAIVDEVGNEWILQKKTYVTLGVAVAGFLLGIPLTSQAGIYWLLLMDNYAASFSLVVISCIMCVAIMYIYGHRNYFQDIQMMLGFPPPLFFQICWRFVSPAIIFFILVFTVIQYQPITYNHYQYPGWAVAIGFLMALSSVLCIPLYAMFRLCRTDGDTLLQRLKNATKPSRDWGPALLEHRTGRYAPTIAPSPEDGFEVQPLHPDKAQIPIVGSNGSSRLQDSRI
Nature of the experiment: Glycine Transporter 1 (GlyT1) uptake assay, scintillation proximity assay of [14C]-glycine uptake. The class given is cell-based. On the procedure: Glycine Transporter 1 (GlyT1) Uptake Assay
Plates were then read on a MicroBeta plate counter (Perkin Elmer). Dose-response data for tested compounds were analyzed and curves were fit using a four parameter logistic fit to determine IC50 values. […]
`Cc1cc(-n2cc3c(n2)CN(C(=O)c2cc(C#N)ccc2N2CCC(F)(F)CC2)C3)ccn1` [Example 541, 4-(4 4-Difluoropiperidin-1-yl)-3-[2-(2-methylpyridin-4-yl)-2H 4H 5H 6H-pyrrolo[3,4-c]pyrazole-5-carbonyl]benzonitrile]: the 50% inhibitory concentration (IC50) was less than 100 nM. Then `CS(=O)(=O)c1ccc(N2CCC(F)(F)CC2)c(C(=O)N2Cc3cn(-c4ccccc4F)nc3C2)c1` [Example 69, 4 4-Difluoro-1-{2-[2-(2-fluorophenyl)-2H 4H 5H 6H-pyrrolo[3,4-c]pyrazole-5-carbonyl]-4-methanesulfonylphenyl}piperidine], with less than 100 nM. Regarding `N#Cc1ccc(-c2cccc(F)c2)c(C(=O)N2Cc3cn(-c4cncc(F)c4)nc3C2)c1` [Example 551, 4-(3-Fluorophenyl)-3-[2-(5-fluoropyridin-3-yl)-2H 4H 5H 6H-pyrrolo[3,4-c]pyrazole-5-carbonyl]benzonitrile], the IC50 was 1000 to 10000 nM. Then `CS(=O)(=O)c1ccc(N2CCC(F)(F)CC2)c(C(=O)N2Cc3cn(-c4cncc(F)c4)nc3C2)c1` [Example 100, 3-{5-[2-(4 4-Difluoropiperidin-1-yl)-5-methanesulfonylbenzoyl]-2H 4H 5H 6H-pyrrolo[3,4-c]pyrazol-2-yl}-5-fluoropyridine], with less than 100 nM.

In general, IC50 refers to the concentration at which inhibition is half-maximal. Lower therefore signals greater potency.
